The values below come from patent US8431563B2 (priority 2010, dated 2013).

Chains of the proteins cited; added tags and fusions are not shown.
UniProt Q14397, whole entry: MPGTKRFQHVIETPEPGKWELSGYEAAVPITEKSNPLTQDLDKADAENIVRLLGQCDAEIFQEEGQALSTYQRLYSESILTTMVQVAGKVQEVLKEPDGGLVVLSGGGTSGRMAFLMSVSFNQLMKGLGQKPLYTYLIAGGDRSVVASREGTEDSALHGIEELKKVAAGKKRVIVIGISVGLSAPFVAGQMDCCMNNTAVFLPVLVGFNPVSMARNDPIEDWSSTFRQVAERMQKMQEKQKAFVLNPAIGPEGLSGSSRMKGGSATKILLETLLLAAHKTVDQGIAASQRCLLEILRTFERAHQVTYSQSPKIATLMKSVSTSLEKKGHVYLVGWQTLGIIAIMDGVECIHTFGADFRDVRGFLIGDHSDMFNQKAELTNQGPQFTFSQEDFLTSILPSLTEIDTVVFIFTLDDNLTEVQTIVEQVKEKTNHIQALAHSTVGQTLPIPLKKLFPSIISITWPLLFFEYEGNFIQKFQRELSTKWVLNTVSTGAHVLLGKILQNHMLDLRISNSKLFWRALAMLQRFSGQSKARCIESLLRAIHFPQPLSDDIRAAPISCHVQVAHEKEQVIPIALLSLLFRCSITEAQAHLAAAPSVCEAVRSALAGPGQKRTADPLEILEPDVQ

The target of experiment [1] is GKRP (Glucokinase Regulatory Protein) with human His-hepatic GK (Homo sapiens, UniProt Q14397). The following applies: read-out: GK-GKRP EC50 (LC MS/MS-2); 13C-glucose-6-phosphate formation; 280 nM GKRP (10×), 30 nM GK (5×).
Experiment [2] addresses interaction between glucokinase (GK) and glucokinase regulatory protein (GKRP) (Homo sapiens, UniProt Q14397). The following applies: read-out: GK-GKRP IC50 (Binding); avi-tagged GKRP, GK-fluorescein, AlphaScreen beads. On the technique in general: In Alpha technology, singlet oxygen from a donor bead excites a nearby acceptor bead.

As for `CC(O)(c1ccc(N2CCN(S(=O)(=O)c3ccc(N)nc3)C[C@@H]2CC2CCOCC2)cc1)C(F)(F)F` (single isomer, unassigned) [Example 127 Peak #2], the EC50 in experiment [1] came to 0.072 µM. Further, in experiment [2], the IC50 (as a rule, the concentration that gives 50% inhibition) was determined as 0.048 µM.
The like results for `CC(O)(c1ccc(N2CCN(S(=O)(=O)c3ccc(N)nc3)C[C@@H]2CC2CCOCC2)cc1)C(F)(F)F` (single isomer, unassigned) [Example 127 Peak #1] were, in that order, 0.098 µM and 0.051 µM.
